# Measurements published in US20260174855A1 (priority 2022, published 2026).
# Columns and labels:
# [1] = [4, 5]; cited from earlier work
# neonatal rats = experiment: prenatal NorBUP exposure, neonatal global withdrawal score; conditions: NorBUP 0.3-3 mg/kg per day s.c.; naltrexone challenge postnatal day 1
smiles,measurement,setting,value
CO[C@]12CC[C@@]3(C[C@@H]1[C@](C)(O)C(C)(C)C)[C@H]1Cc4ccc(O)c5c4[C@@]3(CCN1)[C@H]2O5,concentration in human placenta and meconium relative to BUP,[1],at least 10 fold
same,neonatal dependence and withdrawal after prenatal exposure,neonatal rats,induces dependence and withdrawal in neonatal rats
